{"sequences": {"note": "Sequences of proteins named here, by UniProt entry; tags and fusion partners are left off.", "UniProt P22001, whole entry": "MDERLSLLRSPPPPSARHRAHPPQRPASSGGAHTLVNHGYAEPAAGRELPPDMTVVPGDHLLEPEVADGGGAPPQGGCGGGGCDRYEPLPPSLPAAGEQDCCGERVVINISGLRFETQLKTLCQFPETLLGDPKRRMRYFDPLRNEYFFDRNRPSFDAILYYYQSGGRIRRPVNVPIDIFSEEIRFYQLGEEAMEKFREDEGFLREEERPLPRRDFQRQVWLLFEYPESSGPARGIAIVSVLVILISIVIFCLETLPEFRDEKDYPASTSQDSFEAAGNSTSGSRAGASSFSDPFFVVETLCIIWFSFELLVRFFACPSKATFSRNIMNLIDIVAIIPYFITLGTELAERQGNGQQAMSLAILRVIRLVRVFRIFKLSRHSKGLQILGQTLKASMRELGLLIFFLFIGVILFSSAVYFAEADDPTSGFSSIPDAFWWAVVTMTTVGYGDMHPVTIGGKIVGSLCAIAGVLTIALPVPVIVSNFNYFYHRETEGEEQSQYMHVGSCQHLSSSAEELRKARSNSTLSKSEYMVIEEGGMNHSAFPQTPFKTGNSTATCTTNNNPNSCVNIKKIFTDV"}, "source": "patent US7910102B2", "about": "(priority 2006, dated 2011)", "target": "human Kv1.3 (Homo sapiens, UniProt P22001)", "assay_type": "cell-based", "parameters": "expressed in transfected cells", "data": [{"smiles": "CC[C@H](C)[C@@H]1NC(=O)[C@H](CCCCN)NC(=O)[C@@H](NC(=O)[C@H](CCCCN)NC(=O)[C@@H](NC(=O)[C@H](CC(N)=O)NC(=O)[C@@H](NC(=O)[C@@H](NC(=O)[C@@H](NC(=O)CN)C(C)C)[C@@H](C)CC)[C@@H](C)CC)C(C)C)CSSC[C@@H]2NC(=O)[C@H](CCCCN)NC(=O)CNC(=O)[C@H](Cc3ccccc3)NC(=O)[C@H](CCCNC(=N)N)NC(=O)[C@H](CCSC)NC(=O)CNC(=O)[C@H](C)NC(=O)[C@H](CCCCN)NC(=O)[C@H](CCCCN)NC(=O)[C@@H]3CSSC[C@@H](C(=O)N[C@H](C(=O)N4CCC[C@H]4C(=O)N[C@@H](CCCCN)C(=O)O)[C@@H](C)O)NC(=O)[C@H](Cc4c[nH]cn4)NC(=O)[C@H](CSSC[C@H](NC(=O)[C@H](CCC(N)=O)NC(=O)[C@H](CCCNC(=N)N)NC(=O)[C@H](CO)NC1=O)C(=O)N[C@@H](CC(C)C)C(=O)N[C@@H](CCC(=O)O)C(=O)N1CCC[C@H]1C(=O)N3)NC(=O)[C@H](CCCCN)NC(=O)CNC(=O)[C@H](CC(N)=O)NC(=O)[C@H](CCSC)NC2=O", "note": "[OSK1]", "values": [{"measurement": "Kv1.1 IC50 relative to Kv1.3 IC50", "result": 5, "unit": "fold"}]}]}
